{
  "source": "patent EP0004261A2",
  "about": "“Imidazole derivatives, method for their preparation and pharmaceutical compositions containing them” (F. HOFFMANN-LA ROCHE & CO. Aktiengesellschaft, priority 1978, dated 1979)",
  "system": "Bastardhunde",
  "assay": "Coronary-dilating / haemodynamic effect in anaesthetised open-chest dogs (electromagnetic flowmeter, aortic catheter, tachograph)",
  "conditions": "Dosis i.v. 3 mg/kg in Propylenglykol, n = 5",
  "key": {"[1]": {"conditions": "maximal effect in percent of baseline"}},
  "data": [
    {"smiles": "Cc1nc(C(N)=O)c(C(=O)N[N+](=O)[O-])n1[C@@H]1O[C@H](CO[N+](=O)[O-])[C@@H](O[N+](=O)[O-])[C@H]1O[N+](=O)[O-]", "values": [
      {"measurement": "BP [min] (arterieller Blutdruck, Wirkungsdauer)", "setting": "duration of effect", "value": ">60", "unit": "min"},
      {"measurement": "CABF [min] (Coronarfluss, Wirkungsdauer)", "setting": "duration of effect", "value": ">60", "unit": "min"},
      {"measurement": "HR [min] (Herzfrequenz, Wirkungsdauer)", "setting": "duration of effect", "value": 20, "unit": "min"},
      {"measurement": "PL [min] (Druckgradient, Wirkungsdauer)", "setting": "duration of effect", "value": 60, "unit": "min"},
      {"measurement": "BP Δ % (arterieller Blutdruck)", "setting": "[1]", "value": -55, "unit": "%"},
      {"measurement": "CABF Δ % (Coronarfluss)", "setting": "[1]", "value": -30, "unit": "%"},
      {"measurement": "HR Δ % (Herzfrequenz)", "setting": "[1]", "value": "+8%"},
      {"measurement": "PL Δ % (Druckgradient, Aortadruck minus peripherem Coronardruck)", "setting": "[1]", "value": -38, "unit": "%"}
    ]}
  ]
}
